Measurements reported in publication PMC5320532 (2017).

Legend:
[1] = system: mock-transfected HEK293 cells; settings: human
[2] = system: P-gp-KO (CRISPR) MDCK cells; settings: dog
[3] = system: P-gp-transfected MDCK cells; settings: dog
[4] = system: MDCK II wild-type cells; settings: dog
[5] = system: P-gp-transfected MDCK cells (+ elacridar); settings: dog, MDCK-MDR1
[6] = system: freshly isolated human hepatocytes in suspension
[7] = system: human hepatocytes cultured for 24 h in monolayer format
[8] = system: P-gp; settings: dot = substrate; collated from literature ref 74, 75, 76; cited from earlier work

| intracellular bioavailability (Fic) [1] | intracellular bioavailability (Fic) [2] | intracellular bioavailability (Fic) [3] | intracellular bioavailability (Fic) [4] | intracellular bioavailability (Fic) [5] | intracellular bioavailability (Fic) [6] | intracellular bioavailability (Fic) [7] | SMILES | P-gp substrate [8] |
| --- | --- | --- | --- | --- | --- | --- | --- | --- |
| 1.1±0.1 | 1.4±0.3 | 0.65±0.13 | 0.81±0.20 | 0.99±0.14 | 3.1±0.9 | 3.9±1.2 | CN(CCOc1ccc(CC2SC(=O)NC2=O)cc1)c1ccccn1 (centres unmarked) [Rosiglitazone] | – |
| – | – | – | – | – | – | – | COc1cc2nc(N3CCN(C(=O)c4ccco4)CC3)nc(N)c2cc1OC [Prazosin] | ● |
